Chains of the proteins cited; added tags and fusions are not shown.
ATP-dependent Clp protease proteolytic subunit (Bacillus subtilis (strain 168)), P80244, UniProt P80244, whole entry, looked up: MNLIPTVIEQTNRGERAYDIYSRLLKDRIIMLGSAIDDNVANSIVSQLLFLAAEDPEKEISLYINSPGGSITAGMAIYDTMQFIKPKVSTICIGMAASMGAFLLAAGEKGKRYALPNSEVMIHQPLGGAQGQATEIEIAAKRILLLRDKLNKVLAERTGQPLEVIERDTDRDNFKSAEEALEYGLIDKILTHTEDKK

# Screening data as filed in PubChem.
# ClpP mod: qHTS Assay for Activators of ClpP; ATP-dependent Clp protease proteolytic subunit (Bacillus subtilis (strain 168)), P80244; purified B. subtilis ClpP, FRET peptide cleavage, 20 min; Potency, µM (top dose mostly 57.5 µM); 340,000 tested, 1.9% active; AID 651965, 2013; active = well fitted falling curve with a large enough effect; inconclusive = small, poorly fitted or top-dose-only effect; inactive = no such curve, though single readings can be large or run the other way; note: the source files actives as falling curves though it sought activators and does not explain the sign; nearly all actives have a fitted effect of over 65% in size
#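 ClpP 10 microg/mL final, pH 8 Tris/KCl buffer with BSA, glycerol, Tween-20; compound pinned in; FRET-FV substrate; RT 20 min; Ex320/Em430; ΔFRET vs ADEP 5.8 microM, DMSO, no enzyme.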
# CBFb RUNX1 block: inhibitors of human CBF-beta and RUNX1 interaction; AlphaScreen CBFb-His/RUNX1-biotin binding, biochemical; 230,000 tested, under 10 active; AID 1477; Potency, µM (doses to about 59.8 µM), hits mostly inhibitors; active = well fitted curve in the direction sought with a large enough effect; inconclusive = small, poorly fitted or top-dose-only effect, or effect the other way, or another doubt; inactive = no such curve, though single readings can be large or run the other way
#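 CBFb-His/RUNX1-biotin, 30 nM each, preincubated 20 min RT; compound 15 min RT; Ni + streptavidin beads 50 ng each, 90 min RT; AlphaScreen read.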
# MBNL1 CUG block: inhibitors of human MBNL1 binding to CUG repeat RNA; Q9NR56; TR-FRET MBNL1-His/biotin-(CUG)12 binding, 665/545 ratio; Potency, µM (highest dose often 57.5 µM), most hits filed as inhibitors; 280,000 tested, 0.036% active; AID 2675; active = well fitted inhibition curve with a large enough effect in the signal ratio, with a control signal flat, not every such curve was filed as active; inconclusive = small, poorly fitted or top-dose-only effect, or effect the other way, or a change in a side signal; inactive = no such curve, though single readings can be large or run the other way; the % refers to the signal ratio
#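 Compounds (final 92 nM to 58 uM) are added to His-tagged MBNL1 and biotin-(CUG)12, then terbium anti-His antibody and streptavidin-XL665 (5 nM final). After 60 min at room temperature, the 665/545 nm ratio is read.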
# Rango complex inh: Rango-importin beta binding inhibition | Potency, µM (titrated, usually from 92.2 µM) | Q14974 | Rango CFP/YFP FRET sensor + importin beta, 45 min | 340,000 tested, 0.031% active; note: nearly all actives have a fitted effect of over 15% in size
#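 Inhibition scored from the CFP 486 nm/YFP 530 nm FRET ratio 45 min after adding 0.125 microM importin beta to 50 nM Rango biosensor preincubated 5 min with compound (room temperature, PBS with DTT, Tween-20, BSA). No-importin wells as positive control.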
# Rango dissoc inh: prevents RanGTP from dissociating the Rango-importin beta complex; O95149+P62826; Biochemical FRET Rango-importin beta, RanGTP-induced dissociation; Potency, µM (top dose mostly 46.1 µM); 340,000 tested, 0.071% active; note: nearly all actives have a fitted effect of over 45% in size
#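 Rango (0.1 uM)–importin beta (0.25 uM) complex; RanGTP-RCC1 trigger; 45 min RT; CFP/YFP FRET read.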
# Hits are given with their value; . = inactive; ? = inconclusive; / = not tested or not shown. The entries come from a sample that favours hits as a whole. Unless noted, calls come from the whole dose curve.
SMILES,ClpP mod,CBFb RUNX1 block,MBNL1 CUG block,Rango complex inh,Rango dissoc inh
N#Cc1nc(-c2ccccc2F)oc1NCCN1CCOCC1,.,.,.,.,.
Cc1ccc(C2Nc3ccccc3-n3c(-c4ccccc4)c4c(=O)n(C)c(=O)n(C)c4c32)cc1 (stereo unspecified),.,/,/,/,/
Cc1ccccc1C(=O)Nc1sc2c(c1C(=O)N1CCCCC1)CCC(C)C2 (stereo unspecified),.,/,/,/,/
O=C1CCC[C@@H]2C[C@@]3(C[C@@H]4CCN1[C@H]24)Nc1ccccc1NC3=NC1CCCCC1,.,/,/,/,/
O=C(COC(=O)Cc1c(Cl)cccc1Cl)NCC1CCCO1 (stereo unspecified),25.1µM,.,.,.,.
COc1ccc2oc(C(=O)OCC(=O)Nc3cccc(S(=O)(=O)N4CCOCC4)c3)c(C)c2c1,/,/,/,.,.
COc1ccc2oc(C(=O)OCc3nnc(-c4ccccc4)o3)c(C)c2c1,25.1µM,/,/,.,.
COc1ccc2oc(C(=O)OCC(=O)NC3(C#N)CCCC3)c(C)c2c1,25.1µM,/,/,.,.
COc1ccc2oc(C(=O)OCC(=O)Nc3ccc(OC)c(S(N)(=O)=O)c3)c(C)c2c1,28.2µM,/,/,.,.
COc1ccc(NC(=O)C2Cc3c(-c4cccc(C(C)=O)c4)ccnc3O2)cc1 (stereo unspecified),.,/,/,/,/
COc1cc2c(cc1OC)C(COc1cc(C)cc(C)c1)N(C(=O)c1ccc(S(=O)(=O)N3CCCC3)cc1)CC2 (stereo unspecified),.,/,/,/,/
CCC1CN(C(=O)N2CCC(C(=O)NCc3cc(OC)ccc3OC)CC2)c2ccccc2O1 (stereo unspecified),.,/,/,/,/
Cc1ccc(-c2nc3ncccc3o2)cc1NC(=O)c1ccc(-c2ccc(Cl)cc2)o1,.,/,/,/,/
COc1ccc2oc(C(=O)OCC(=O)NCC3CCCO3)c(C)c2c1 (stereo unspecified),12.6µM,/,/,.,.
COc1ccc2oc(C(=O)OCC(=O)N(C)CC(=O)Nc3ccc(C)cc3)c(C)c2c1,/,/,/,.,.
COc1ccc2oc(C(=O)OCC(=O)Nc3ccc(NC(C)=O)cc3)c(C)c2c1,25.1µM,/,/,.,.
COc1ccc2oc(C(=O)OCC(=O)Nc3cc(S(=O)(=O)N4CCOCC4)ccc3OC)c(C)c2c1,10µM,/,/,.,.
CCOc1ccc2oc(C(=O)OCC(=O)NCC3CCCO3)c(C)c2c1 (stereo unspecified),.,/,/,.,.
Cc1[nH]c2ccccc2c1/C=C/c1ccnc2ccccc12,.,/,/,/,/
Cc1ccc(NC(=O)CSc2nnc(COc3ccc(Cl)cc3)o2)c(C)c1,.,/,/,/,/
O=C(NCCCn1ccnc1)Nc1cccc2ccccc12,31.6µM,.,.,.,.
O=C1C(=O)N(C2CCN(C(=O)c3ccc(F)cc3)CC2)CCN1Cc1ccc(F)cc1,.,/,/,/,/
COc1ccc(NC2CCCN(C(=O)CCN3CCCC3=O)C2)cc1 (stereo unspecified),.,/,.,.,.
O=C1CCCN1CCC(=O)N1CCCC(Nc2ccc(F)cc2)C1 (stereo unspecified),28.2µM,/,.,.,.
O=[N+]([O-])c1ccc(N/N=C/c2c[nH]c3ccccc23)cc1,.,.,?,20.6µM,?
SMILES,ClpP mod,CBFb RUNX1 block,MBNL1 CUG block,Rango complex inh,Rango dissoc inh
CCNC(=O)c1c(NC(=O)Cc2coc3ccc(CC)cc23)sc2c1CCCC2,.,/,/,/,/
O=C(COc1ccc(Cl)cc1)Nc1ccc(Cc2ccncc2)cc1,7.08µM,.,.,.,.
O=C(COc1ccc2ccccc2c1)Nc1ccc(Cc2ccncc2)cc1,.,?,.,.,.
CCNc1nn2ccccc2c1/C=C(\C#N)C(=O)OCC,.,.,?,?,10.3µM
CCOC(=O)/C(C#N)=C/c1c(N2CCCCCC2)nc2ccccn2c1=O,.,/,?,.,.
O=C(Nc1ccc2c(c1)[nH]c(=O)c1ccccc12)C(F)(F)F,.,/,/,.,.
CC(=O)Nc1ccc2c(c1)[nH]c(=O)c1ccccc12,31.6µM,/,/,.,.
Nc1cccc2[nH]c(=O)c3ccccc3c12,28.2µM,/,/,.,.
Nc1ccc2c(c1)[nH]c(=O)c1ccccc12,20µM,/,/,.,.
O=C(NCc1ccccc1F)C1CCN(Cc2cc3ccccc3n2Cc2cccc(Cl)c2)CC1,.,/,/,/,/
COc1ccc(N2CC3=C(C2=O)C(c2ccc(Br)cc2)NC(=O)N3C)cc1 (stereo unspecified),.,/,/,/,/
CCn1nc(C)c(CCN(C)C(=O)Nc2cc(Cl)c(OC)cc2OC)c1C,.,/,/,/,/
COCCn1c(=NC(=O)c2ccco2)sc2cc(C(=O)OC)ccc21,.,.,.,.,.
C=CCn1c(=NC(=O)c2ccco2)sc2cc(C(=O)OCC)ccc21,22.4µM,.,.,.,.
C=CCn1c(=NC(=O)c2ccco2)sc2cc(C(=O)OC)ccc21,22.4µM,.,.,.,.
Fc1ccc(N/N=C/c2ccncc2)c(F)c1,22.4µM,.,.,.,.
O=C(O)c1ccc(/C=N/Nc2ccc(F)cc2F)cc1,.,.,.,.,.
Cc1cc(C)c(Cn2c(=O)n(CCC(=O)NCc3ccc4c(c3)OCO4)c(=O)c3ccccc32)c(C)c1,.,/,/,/,/
COc1cccc(-c2nnc3n2N=C(c2ccc(OC)cc2OC)CS3)c1,/,.,/,/,/
CC(=O)N(C)c1ccc(C(O)(C(F)(F)F)C(F)(F)F)cc1,/,.,.,.,.
CCOC(=O)N(C)c1ccc(C(O)(C(F)(F)F)C(F)(F)F)cc1,31.6µM,.,.,.,.
CCCCn1c(N)c(N(CCOC)C(=O)c2ccc(Cl)c(S(=O)(=O)N3CCCCC3)c2)c(=O)[nH]c1=O,31.6µM,/,/,.,?
CC(=O)Nc1ccc(S(=O)(=O)NCc2ccc3c(c2)cc(C)n3C)cc1,.,.,.,?,23.1µM
Cc1cc2cc(CNS(=O)(=O)c3ccc4ccccc4c3)ccc2n1C,.,?,.,.,.
CCn1c2c(c(=O)n3ncc(C(=O)Nc4cc(Cl)ccc4OC)c13)CN(Cc1ccc(OC)cc1)CC2,31.6µM,/,/,/,/
SMILES,ClpP mod,CBFb RUNX1 block,MBNL1 CUG block,Rango complex inh,Rango dissoc inh
Cc1c(Br)cccc1NC(=O)c1sccc1-n1cccc1,8.91µM,.,.,.,.
O=C(Nc1ccc(Br)cc1F)c1sccc1-n1cccc1,.,.,.,.,.
Cc1ccc(C(C(=O)NC(C)(C)C)N(Cc2ccco2)C(=O)Cn2nnc(-c3cccs3)n2)cc1 (stereo unspecified),25.1µM,.,.,.,.
Cc1cccc(N2CCN(c3nc4ccc(C)cc4n4cnnc34)CC2C)c1 (stereo unspecified),31.6µM,/,/,/,/
CN(C)CCCCCCNc1nccc(N2CCN(C)CC2)n1,.,/,/,/,/
CCOc1ccc(-c2nnc(-c3snc(-c4ccc(F)cc4)c3N=CN(C)C)o2)cc1,28.2µM,.,.,.,?
COc1ccc(-c2nnc(-c3ccc(F)cc3)o2)cc1,.,/,.,.,.
